Laboratory results: patent US7420001B2 (Wyeth, priority 2003, dated 2008)

Legend:
MMP-13 = biological target: T1, MMP-13 (Homo sapiens, UniProt P45452); test: In-vitro fluorescence assay of MMP-13 activity; assay type: biochemical; details: recombinant human catalytic domain of MMP-13; read-out: MMP-13 IC50
T1 construct: made in house

MMP-2 = biological target: T2, MMP-2 (Homo sapiens, UniProt P08253); test: In-vitro fluorescence assay of MMP-2 activity; assay type: biochemical; details: recombinant human MMP-2
T2 construct: purchased Oncogene Research Products (Calbiochem) PF023
T2 sequence (P08253 110-660): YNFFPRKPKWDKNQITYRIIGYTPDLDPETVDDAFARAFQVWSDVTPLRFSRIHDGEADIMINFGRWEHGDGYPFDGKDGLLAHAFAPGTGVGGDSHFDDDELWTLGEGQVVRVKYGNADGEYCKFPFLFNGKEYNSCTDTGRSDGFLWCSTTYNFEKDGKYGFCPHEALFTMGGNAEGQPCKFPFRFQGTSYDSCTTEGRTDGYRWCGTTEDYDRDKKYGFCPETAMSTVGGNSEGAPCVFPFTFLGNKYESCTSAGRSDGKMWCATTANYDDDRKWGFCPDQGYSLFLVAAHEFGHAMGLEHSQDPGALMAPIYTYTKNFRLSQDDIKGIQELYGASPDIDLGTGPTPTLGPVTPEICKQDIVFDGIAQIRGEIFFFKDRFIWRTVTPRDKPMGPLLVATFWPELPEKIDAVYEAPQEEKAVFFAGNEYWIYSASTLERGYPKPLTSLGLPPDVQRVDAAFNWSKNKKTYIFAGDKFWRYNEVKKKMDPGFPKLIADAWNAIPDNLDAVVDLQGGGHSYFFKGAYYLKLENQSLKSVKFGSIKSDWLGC

SMILES | IC50 (MMP-13) | IC50 (MMP-2)
CC(C)[C@H](NS(=O)(=O)c1ccc(-c2ccc(NC(=O)c3cc4ccccc4o3)cc2)cc1)C(=O)O [Example 2, L-2-{4′-[(Benzofuran-2-carbonyl)-amino]-biphenyl-4-sulfonylamino}-3-methyl-butyric acid] | 1.6 nM | 
CC(C)[C@H](NS(=O)(=O)c1ccc(-c2ccc(NC(=O)c3cc4ccccc4[nH]3)cc2)cc1)C(=O)O [Example 3] |  | 19 nM
